Laboratory results published in publication PMC6130577, “Rational screening of peroxisome proliferator-activated receptor-γ agonists from natural products: potential therapeutics for heart failure” (Pharmaceutical Biology, 2016).

By UniProt entry, the sequences of proteins in these tests, tags left out. Residues count along the entry.
UniProt P37231, 238-503 limits assumed: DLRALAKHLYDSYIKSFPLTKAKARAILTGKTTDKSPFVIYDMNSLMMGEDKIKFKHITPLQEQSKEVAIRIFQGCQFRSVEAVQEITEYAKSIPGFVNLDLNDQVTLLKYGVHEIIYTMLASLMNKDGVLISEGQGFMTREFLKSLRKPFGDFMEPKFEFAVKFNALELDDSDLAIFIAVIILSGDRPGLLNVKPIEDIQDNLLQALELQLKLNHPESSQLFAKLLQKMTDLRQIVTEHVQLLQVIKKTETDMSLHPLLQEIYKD

Biological target: human PPARγ (hPPARγ) (Homo sapiens, UniProt P37231)
Assay: Transactivation reporter assay (chimeric GAL4-PPAR reporter-gene assay in CV-1 cells)
Format: cell-based
Conditions: for EC50: CV-1 cells, 48 h, luciferase, triplicate; for Agonistic intensity: percentage of agonistic potency relative to full agonist Pioglitazone at their respective EC50 concentration

| Compound | EC50 [µM] | Agonistic intensity [%] |
| --- | --- | --- |
| Cc1nc(C(C#N)=NNc2ccccc2[N+](=O)[O-])sc1N=Nc1ccccc1 | 2.1 | 63 |
| COc1cc(/C=C/C(=O)NCCc2ccc(O)cc2)ccc1O | 5.6 | 37 |
